Measurements as given in publication PMC9837764 (Nature Communications, 2023).

Test system: 5′-nucleotidase

**Q.** Which “Substrate for 5′-nucleotidase activity” value does the source give for `CC(C)OC(=O)[C@H](C)NP(=O)(OC[C@H]1O[C@@H](n2cnc3c(NCc4ccco4)ncnc32)[C@H](O)[C@@H]1O)Oc1ccccc1` (stereo partly drawn) [MB-711, Phenyl (Isopropoxy-L-alaninyl) Kinetin Riboside Phosphoramidate] here?
**A.** could be used as a substrate in the substitution of AMP
